Data on one compound can be found in PMC2742655 (Bioorganic & medicinal chemistry letters, 2009).

The assay concerns P. falciparum W2 strain (chloroquine-resistant). The assay is described as follows: Antiplasmodial activity, growth of P. falciparum W2 strain. The format is cell-based. To be noted: Plasmodium falciparum, W2, read-out: IC50 W2 P. falciparum.

A word on the IC50: it is the midpoint of a concentration-inhibition curve. Consider `CC(C)C[C@H](NC(=O)[C@H]1O[C@@H]1C(=O)O)C(=O)NCCCCN=C(N)N` [Compound E64, E64], for which the IC50 was found to be 1960 ± 121 nM.
